Assay: Release of gentamicin from polymer sleeves on metal plates implanted in sheep
Settings: within 24 hours after insertion, sleeve with 10% gentamicin, gentamicin exposed to the sleeve surface

gentamicin released into the adjacent tissue: Approximately 50%
Substance: gentamicin

Source: patent US9381683B2, “Films and methods of manufacture” (priority 2011, dated 2016)
